# In article PMC2653189 (PLoS ONE, 2009):
# Protein sequences, listed by entry. Tags and fused reporters are not part of them.
# UniProt P40763, whole entry, species assumed: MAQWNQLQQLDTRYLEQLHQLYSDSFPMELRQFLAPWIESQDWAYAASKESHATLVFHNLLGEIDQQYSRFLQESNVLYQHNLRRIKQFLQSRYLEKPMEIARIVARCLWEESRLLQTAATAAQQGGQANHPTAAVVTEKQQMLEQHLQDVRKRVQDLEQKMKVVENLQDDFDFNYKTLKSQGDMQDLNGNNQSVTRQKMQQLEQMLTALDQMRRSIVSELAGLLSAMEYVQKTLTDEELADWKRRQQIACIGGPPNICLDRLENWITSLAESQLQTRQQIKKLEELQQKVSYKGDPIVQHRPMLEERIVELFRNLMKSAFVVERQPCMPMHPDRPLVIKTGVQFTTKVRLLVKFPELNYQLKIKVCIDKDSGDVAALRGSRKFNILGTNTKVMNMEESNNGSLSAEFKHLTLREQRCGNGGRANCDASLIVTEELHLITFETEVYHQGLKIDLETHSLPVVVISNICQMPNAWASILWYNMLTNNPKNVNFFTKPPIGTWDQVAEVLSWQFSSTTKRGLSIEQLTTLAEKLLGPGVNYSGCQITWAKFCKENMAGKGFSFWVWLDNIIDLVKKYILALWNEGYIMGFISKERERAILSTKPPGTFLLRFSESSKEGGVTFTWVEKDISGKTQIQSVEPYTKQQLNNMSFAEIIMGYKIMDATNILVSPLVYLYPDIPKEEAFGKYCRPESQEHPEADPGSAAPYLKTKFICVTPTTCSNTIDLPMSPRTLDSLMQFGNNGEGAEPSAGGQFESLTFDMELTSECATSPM
# Biological target: Stat3 (Homo sapiens, UniProt P40763)
# Assay: Stat3/pY-peptide binding assay (SPR, BIAcore)
# Conditions: recombinant Stat3 500 nM; immobilized EGFR Y1068 phosphododecapeptide; 25°C; read-out: SPR IC50, inhibition of Stat3 binding to pY peptide ligand
# Procedure: A control (Stat3 with DMSO but without compound) was run at the beginning and the end of each cycle (40 sample injections) to ensure that the integrity of the sensor chip was maintained throughout the cycle run. The average of the two controls was normalized to 100% and used to evaluate the effect of each compound on Stat3 binding. Responses were normalized by dividing the value at 2 min by the response obtained in the absence of compounds at 2 min and multiplying by 100.
row,SMILES,pIC50
1,"COC(=O)Cc1c(C)c2ccc(OCc3ccc(C(=O)OC)cc3)c(C)c2oc1=O [Cpd3-7, methyl 4-({[3-(2-methoxy-2-oxoethyl)-4,8-dimethyl-2-oxo-2H-chromen-7-yl]oxy}methyl)benzoate]",3.86
2,"CCN1C(=O)C(=Cc2ccc(-c3ccc(C(=O)O)cc3)o2)SC1=S [Cpd30, 4-{5-[(3-ethyl-4-oxo-2-thioxo-1,3-thiazolidin-5-ylidene)methyl]-2-furyl}benzoic acid]",4.52
3,"O=C(O)CSc1cc(NS(=O)(=O)c2ccc(C(=O)O)cc2)c2ccccc2c1O [Cpd188, 4-[({3-[(carboxymethyl)thio]-4-hydroxy-1-naphthyl}amino)sulfonyl]benzoic acid]",4.70

# pIC50: −log10 of the molar value.
